{
  "sequences": {"note": "Protein sequences, listed by entry. Tags and fused reporters are not part of them. Residues count along the entry.", "UniProt P25101, 21-427 limits assumed": "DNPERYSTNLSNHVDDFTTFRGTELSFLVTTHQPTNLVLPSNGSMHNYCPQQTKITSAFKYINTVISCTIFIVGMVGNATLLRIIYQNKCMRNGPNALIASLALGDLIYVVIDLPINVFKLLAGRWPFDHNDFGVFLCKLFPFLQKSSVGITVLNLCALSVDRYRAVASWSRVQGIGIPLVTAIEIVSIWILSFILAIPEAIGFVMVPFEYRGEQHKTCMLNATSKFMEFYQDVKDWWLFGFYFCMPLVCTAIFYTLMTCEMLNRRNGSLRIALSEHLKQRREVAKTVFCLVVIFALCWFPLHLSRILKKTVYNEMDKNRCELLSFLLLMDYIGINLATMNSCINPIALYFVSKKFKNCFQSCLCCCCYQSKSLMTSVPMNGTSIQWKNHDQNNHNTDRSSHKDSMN", "UniProt P24530, 27-442 limits assumed": "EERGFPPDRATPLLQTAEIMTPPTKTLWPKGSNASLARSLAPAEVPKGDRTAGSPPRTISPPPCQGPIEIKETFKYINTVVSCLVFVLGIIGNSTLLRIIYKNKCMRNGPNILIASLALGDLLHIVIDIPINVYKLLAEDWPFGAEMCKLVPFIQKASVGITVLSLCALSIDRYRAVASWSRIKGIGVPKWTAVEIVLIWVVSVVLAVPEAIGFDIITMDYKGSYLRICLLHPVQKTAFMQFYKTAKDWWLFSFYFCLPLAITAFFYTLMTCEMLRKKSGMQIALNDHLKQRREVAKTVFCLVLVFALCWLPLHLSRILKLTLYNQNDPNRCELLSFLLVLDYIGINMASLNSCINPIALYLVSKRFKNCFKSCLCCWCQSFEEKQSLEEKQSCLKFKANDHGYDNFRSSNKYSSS"},
  "source": "patent US7094781B2",
  "about": "“Sulfamides and their use as endothelin receptor antagonists” (Actelion Pharmaceuticals Ltd., priority 2000, dated 2006)",
  "key": {"[1]": {"target": "human recombinant ETA receptor (Homo sapiens, UniProt P25101)", "experiment": "Inhibition of [125I]ET-1 binding to membranes from CHO cells carrying human ETA receptors", "conditions": "read-out: IC50 ETA; CHO cell membranes, 8 pM [125I]ET-1, 2 h at 20° C."}, "[2]": {"target": "human recombinant ETB receptor (Homo sapiens, UniProt P24530)", "experiment": "Inhibition of [125I]ET-1 binding to membranes from CHO cells carrying human ETB receptors", "conditions": "read-out: IC50 ETB; CHO cell membranes, 8 pM [125I]ET-1, 2 h at 20° C."}},
  "data": [
    {"smiles": "COc1cnc(OCCOc2ncnc(NS(=O)(=O)NCc3ccccn3)c2-c2ccc(Cl)cc2)nc1", "values": [
      {"measurement": "IC50", "setting": "[1]", "value": 25, "unit": "nM"},
      {"measurement": "IC50", "setting": "[2]", "value": 3410, "unit": "nM"}
    ]},
    {"smiles": "CCCCNS(=O)(=O)Nc1nc(-c2ncccn2)nc(OCCOc2ncc(SC)cn2)c1Oc1ccccc1OC", "values": [
      {"measurement": "IC50", "setting": "[1]", "value": 0.9, "unit": "nM"},
      {"measurement": "IC50", "setting": "[2]", "value": 40, "unit": "nM"}
    ]},
    {"smiles": "CCCCNS(=O)(=O)Nc1nc(-c2ncccn2)nc(OCCOc2ncc(Br)cn2)c1Oc1ccccc1OC", "values": [
      {"measurement": "IC50", "setting": "[1]", "value": 2.7, "unit": "nM"}
    ]},
    {"smiles": "COc1ccccc1Oc1c(NS(=O)(=O)NC2CC2)nc(-c2ncccn2)nc1OCCOc1ncccn1", "values": [
      {"measurement": "IC50", "setting": "[1]", "value": 38.4, "unit": "nM"},
      {"measurement": "IC50", "setting": "[2]", "value": 667, "unit": "nM"}
    ]},
    {"smiles": "COc1ccccc1Oc1c(NS(=O)(=O)NC2CC2)nc(-c2ncccn2)nc1OCCOc1ccc(C(F)(F)F)cn1", "values": [
      {"measurement": "IC50", "setting": "[1]", "value": 133, "unit": "nM"},
      {"measurement": "IC50", "setting": "[2]", "value": 682, "unit": "nM"}
    ]},
    {"smiles": "COc1ccccc1Oc1c(NS(=O)(=O)NCc2ccccn2)nc(-c2cnccn2)nc1OCCOc1ncc(Br)cn1", "values": [
      {"measurement": "IC50", "setting": "[1]", "value": 11, "unit": "nM"},
      {"measurement": "IC50", "setting": "[2]", "value": 487, "unit": "nM"}
    ]},
    {"smiles": "COc1cnc(OCCOc2nc(-c3ncccn3)nc(NS(=O)(=O)NCc3ccccc3)c2Oc2ccccc2OC)nc1", "values": [
      {"measurement": "IC50", "setting": "[1]", "value": 14.5, "unit": "nM"},
      {"measurement": "IC50", "setting": "[2]", "value": 290, "unit": "nM"}
    ]}
  ]
}
